# Antibody variant affinities, Ab-95 light chain, assay 2

Source: Engelhart et al. 2022 (doi:10.1038/s41597-022-01779-4), MIT Lincoln Laboratory and A-Alpha Bio; data file from the FLAb repository.

Antigen: PDVDLGDISGINAS, a 14-residue peptide of the SARS-CoV-2 spike HR2 region.

Ab-95 is the parent antibody, in scFv form: VH, then a 15-residue (Gly4Ser)3 linker, then VL. The heavy chain is unchanged in all variants.
VH: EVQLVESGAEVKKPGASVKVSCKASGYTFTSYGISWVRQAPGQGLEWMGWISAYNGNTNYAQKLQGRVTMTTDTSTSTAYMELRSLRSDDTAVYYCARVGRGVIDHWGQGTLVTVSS
VL: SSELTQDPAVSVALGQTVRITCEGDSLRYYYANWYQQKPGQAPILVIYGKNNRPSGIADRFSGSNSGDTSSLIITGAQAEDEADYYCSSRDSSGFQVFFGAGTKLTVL

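The parent was found by panning a naive human phage display library on the peptide. Library AAYL52 holds single substitutions and randomly drawn double and triple substitutions in the CDRs. The assay is AlphaSeq: two haploid yeast populations carry antibody and antigen on their surface. Binding brings cells together so that they mate, and sequencing counts the barcode pairs among the diploids. Scores were corrected for input abundance and mapped to Kd with protein pairs of known affinity run in the same pool. Each pool was mated in three replicate cultures.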

Each variant is given by its three light chain CDRs, as the data file delimits them; those of the parent are EGDSLRYYYAN, GKNNRPS, SSRDSSGFQVF.
Affinities are written as log10 Kd with Kd in nM; a lower number is a better binder.
Averages over replicates are reported, and they cover detected replicates only.
Where no diploid with the target was found in that replicate, the entry reads "n.d.": below detection, most likely a poor binder, though not proof of it.

CDR-L1	CDR-L2	CDR-L3	replicates, log10 nM	mean, log10 nM	empty controls
EIDSLMYYYAN	GKNNRDS	SSRDSSGFQVF	n.d. n.d. n.d.	n.d.	3/9 (3.36)
EGDSLRYYYAN	GKNNRRS	QSRDSMGFQVF	4.92 n.d. n.d.	4.92	3/9 (3.96)
EGDSLRYYYAN	GKNQREW	SSRDSSGFQVF	3.16 2.50 2.35	2.67	1/9 (3.53)
EQDSLRRYYAN	GKNNRPS	DSRDSSGFQVF	3.89 n.d. n.d.	3.89	2/9 (4.85)
EIDSLRYYYAN	GKNNRPS	SSRASSGFCVF	3.18 n.d. 4.35	3.77	3/9 (3.43)
EGDSLRYYYQN	GKNNRPS	FSRVSSGFQVF	4.02 4.75 n.d.	4.38	3/9 (3.51)
EGDSLRYYYAN	GKNNGPS	SSADSHGFQVF	n.d. 4.48 n.d.	4.48	5/9 (4.15)
EGDSTRYYYAN	GSNNRPS	SSRDSSGFQVF	2.62 3.58 n.d.	3.10	5/9 (3.26)
EGDSLRWYWAT	GKNNRPS	SSRDSSGFQVF	3.77 3.80 2.94	3.50	2/9 (4.27)
EGDSWRYYYAN	GKNNRPS	SSRNSSGSQVF	n.d. 5.31 n.d.	5.31	2/9 (4.03)
EGDSLRYYYAN	GKNARPS	SSRDSSGFQVF	1.85 1.74 1.41	1.67	5/9 (3.75)
EADSLRYYYAN	GKNNRPS	SSRHSSNFQVF	4.04 3.53 n.d.	3.78	5/9 (3.56)
EGISLRYYYAN	GKNVRPS	SSRDSSGFQVF	2.26 2.33 1.88	2.16	5/9 (3.62)
EGDSLRYYKAN	GKNNRPS	FSRDLSGFQVF	3.87 n.d. n.d.	3.87	0/9
EGDSLRYYYAE	AKNNRPS	SSRDSSGFQVF	2.86 3.26 2.86	2.99	1/9 (3.54)
PGDSLRYPYAN	GKNNRPS	SSRDPSGFQVF	3.31 4.44 n.d.	3.88	3/9 (3.73)
EGDSLRYYYAN	GKNNAPS	SSRDSSGFHVV	2.34 2.69 2.02	2.35	3/9 (4.13)
ELDSLRYYYAN	GKNNRPS	SSRKDSGFQVF	3.65 4.22 n.d.	3.93	1/9 (3.71)
EGDTLRYYYDN	GKNNWPS	SSRDSSGFQVF	3.35 n.d. n.d.	3.35	1/9 (5.44)
EGDSLRYYYAN	GHNNTPS	ISRDSSGFQVF	n.d. n.d. n.d.	n.d.	1/9 (2.95)
RGDSLNYYYAN	GKNNRPS	SSRDSSGFQGF	3.50 5.07 3.95	4.17	5/9 (3.16)
EGDSLRYYYAN	GKTNRYS	SSRDSSGKQVF	3.84 n.d. n.d.	3.84	4/9 (3.61)
EGDSLRYPYAN	GQNNRPS	SMRDSSGFQVF	1.79 1.59 1.09	1.49	4/9 (4.32)
EGDSLRYYYAN	GKNNRPS	SSCDSSEFQCF	n.d. n.d. n.d.	n.d.	2/9 (4.46)
ERPSLRYYYAN	GKNWRPS	SSRDSSGFQVF	2.82 2.63 3.18	2.87	5/9 (3.72)
HGDSLRYYYAN	GLNNRPS	SSRDSSGFQHF	n.d. 5.60 4.13	4.87	2/9 (4.18)
EGDSLRYYYAP	LKNNRPS	SSRDSHGFQVF	n.d. 4.88 n.d.	4.88	2/9 (3.73)
GGISLRYYYAN	GKENRPS	SSRDSSGFQVF	4.22 n.d. 4.69	4.45	4/9 (4.56)
EGDSTRYYYAN	GKNNRPS	SSRDSSGLQVF	3.07 n.d. 4.03	3.55	0/9
EGDLLRYYYAN	GKNNRPS	SGRDSSGFQVF	3.20 2.81 3.13	3.05	4/9 (4.08)
EGKFLRYYYAN	GKNNRPS	SLRDSSGFQVF	5.29 3.92 n.d.	4.60	5/9 (3.99)
EGDSLRYYYKN	GKNNRPS	SSRDKAGFQVF	n.d. n.d. n.d.	n.d.	0/9
EGDSLDYYYAN	GKNNRPS	SSRDSSGFEVT	3.29 3.76 n.d.	3.53	0/9
EGDSLRGYYAN	GKNNRPG	SSRDSSGEQVF	3.15 2.04 3.51	2.90	1/9 (4.72)
MGDSLRYEYAN	GKNNRPS	SSRDSPGFQVF	2.03 2.24 1.83	2.03	1/9 (4.02)
EGDSLRYYYAN	GKNNRPS	SSRDSSKFQVY	2.18 2.34 1.63	2.05	3/9 (3.90)
EGDSLRYYYAN	IKNNRMS	SSRDSSGFQVF	n.d. n.d. n.d.	n.d.	1/9 (3.82)
GGDSLRYYYAA	GKNNRPS	SSRDSPGFQVF	2.99 n.d. n.d.	2.99	2/9 (4.18)
EGDSLRYYYAN	IKNCRPS	SSRDDSGFQVF	4.27 5.41 2.92	4.20	4/9 (3.86)
EQDSLRYWYAN	GKNNRPS	SSRDSSGFQVW	3.83 3.32 2.65	3.27	6/9 (3.95)
EGDSLRYYYAN	GKNNRPS	SSHDHSYFQVF	3.36 2.97 4.13	3.49	2/9 (4.28)
EGDSLRYYYAN	GKNNRKS	SSRDSSDFQHF	5.39 n.d. 4.19	4.79	2/9 (3.96)
ECDSLRYYYAN	MKNNRYS	SSRDSSGFQVF	3.45 n.d. n.d.	3.45	5/9 (3.53)
EGDSLRYYYVK	GKNNPPS	SSRDSSGFQVF	2.90 n.d. 2.58	2.74	3/9 (3.82)

In this assay the parent's reference entry averaged 2.31; its copy inside this library read 2.25.
Nonspecific signal, from three strains lacking the peptide, appeared in 28% of pairings of library AAYL52, centred on 3.91 (5% of these signals below 2.90); values are not corrected for it. For each scFv, signals with the empty controls are counted beside the result, with their mean in brackets.